# According to PubChem BioAssay AID709 (SRMLSC, 2007):
# The list shows a part of the results, in another mix than the full data. Some results for these compounds are left out of this collection, so the calls shown say nothing about other tests. Calls of active or inactive are those of the source.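 How the source made its calls: active means at 10 µM, mean starting fluorescence two-fold or more over control wells; inactive means the rest.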
# Assay: intrinsic fluorescence of library compounds, ex339/em460 – biochemical, MLSMR library, data from DPM-DC assay, artefact control, profiling panel (AID 709);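 further: signal is the first read of a kinetic run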
# Conditions: compound autofluorescence, ex339/em460 nm, NADH buffer; at 10 µM; hits give high values; 1 = no-compound wells, NADH background
row,Structure (SMILES),fluorescence fold increase
1,O=C(OC1CN2CCC1CC2)C(CO)(c1ccccc1)c1ccccc1 (configuration not stated),inactive: 1.01
2,CN(C)c1cccc(C(=O)NCC2(N(C)C)CCCCC2)c1,inactive: 1.88
